{"sequences": {"note": "The chains behind the UniProt entries cited, without tags or fusion partners.", "UniProt P14600, whole entry": "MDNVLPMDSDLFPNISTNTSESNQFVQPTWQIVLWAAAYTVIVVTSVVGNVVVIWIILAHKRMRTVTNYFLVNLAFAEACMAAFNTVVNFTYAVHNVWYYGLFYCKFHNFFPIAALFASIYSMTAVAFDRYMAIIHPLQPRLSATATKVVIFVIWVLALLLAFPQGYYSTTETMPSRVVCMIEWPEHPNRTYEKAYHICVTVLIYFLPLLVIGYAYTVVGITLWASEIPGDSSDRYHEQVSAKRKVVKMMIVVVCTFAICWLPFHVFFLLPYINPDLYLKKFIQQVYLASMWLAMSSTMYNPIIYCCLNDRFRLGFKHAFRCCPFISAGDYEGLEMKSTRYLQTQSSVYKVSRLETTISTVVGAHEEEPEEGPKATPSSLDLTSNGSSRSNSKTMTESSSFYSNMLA"}, "source": "ChEMBL document CHEMBL1765015", "about": "“Discovery of a potent and efficacious peptide derivative for δ/μ opioid agonist/neurokinin 1 antagonist activity with a 2',6'-dimethyl-L-tyrosine: in vitro, in vivo, and NMR-based structural studies” (J Med Chem, 2011)", "molecular_target": "Substance-P receptor (Rattus norvegicus, UniProt P14600)", "test": "Displacement of [3H]substance P from rat NK1 receptor expressed in CHO cells", "assay_type": "cell-based", "data": [{"smiles": "CCCC[C@H](NC(=O)[C@H](Cc1ccccc1)NC(=O)CNC(=O)[C@@H](C)NC(=O)[C@@H](N)Cc1c(C)cc(O)cc1C)C(=O)N1CCC[C@H]1C(=O)N[C@@H](CC(C)C)C(=O)N[C@@H](Cc1c[nH]c2ccccc12)C(=O)NCc1cc(C(F)(F)F)cc(C(F)(F)F)c1", "values": [{"measurement": "IC50", "result": 52.5, "unit": "nM"}]}]}
